Values of other authors, collected in patent US6136784A, “Amylin agonist pharmaceutical compositions containing insulin” (Amylin Pharmaceuticals, Inc., priority 1998, dated 2000).

Conditions: cited from earlier work

Substance: regular insulin
- Time to absorption following subcutaneous injection: 15 to 60 min
- Duration of action (lasts for) (subcutaneous injection): 5 to 9 h
